Source: patent US6858645B2, “Tartrate salts of (R) -3-N,N- dicyclobutylamino-8-fluoro-3,4-dihydro-2H-1- benzopyran-5-carboxamide” (AstraZeneca AB, priority 1997, dated 2005)

Key:
[1] = thermogravimetric measurement
[2] = Moisture sorption analysis (absorption and desorption), VTI microbalance, as a measure of physical stability; assay type: physicochemical; conditions: 25° C.
Method: Determination of Stability […] The moisture sorption analysis, absorption and desorption, respective was performed using a VTI microbalance, Model […] (VTI Corporation, USA) linked to an IBM PC. The relative humidity (RH) within the balance was monitored using a dew point analyser. […] The desorption profile was also obtained.

With “(R)-3-N,N-Dicyclobutylamino-8-fluoro-3,4-dihydro-2H-1-benzopyran-5-carboxamide Hydrogen (2R,3R)-Tartrate [Example 1]” the “initial weight loss (thermogravimetric)” value [1] was 0.997 % w/w, the moisture absorbed ([2]; RH of 90%) was “about 4.2 % (w/w)” and the desorption profile ([2]; desorption after exposure up to 90% RH) was “the moisture taken up is firmly bound and that the sample has formed a monohydrate”.
